From ChEMBL document CHEMBL1153427, “1-Sulfonyl-4-acylpiperazines as selective cannabinoid-1 receptor (CB1R) inverse agonists for the treatment of obesity” (J Med Chem, 2009) come the findings set out here.

By UniProt entry, the sequences of proteins in these tests, tags left out. Where a name states a change or a piece, a line headed by the entry shows the natural chain unless it says otherwise.
UniProt Q12809: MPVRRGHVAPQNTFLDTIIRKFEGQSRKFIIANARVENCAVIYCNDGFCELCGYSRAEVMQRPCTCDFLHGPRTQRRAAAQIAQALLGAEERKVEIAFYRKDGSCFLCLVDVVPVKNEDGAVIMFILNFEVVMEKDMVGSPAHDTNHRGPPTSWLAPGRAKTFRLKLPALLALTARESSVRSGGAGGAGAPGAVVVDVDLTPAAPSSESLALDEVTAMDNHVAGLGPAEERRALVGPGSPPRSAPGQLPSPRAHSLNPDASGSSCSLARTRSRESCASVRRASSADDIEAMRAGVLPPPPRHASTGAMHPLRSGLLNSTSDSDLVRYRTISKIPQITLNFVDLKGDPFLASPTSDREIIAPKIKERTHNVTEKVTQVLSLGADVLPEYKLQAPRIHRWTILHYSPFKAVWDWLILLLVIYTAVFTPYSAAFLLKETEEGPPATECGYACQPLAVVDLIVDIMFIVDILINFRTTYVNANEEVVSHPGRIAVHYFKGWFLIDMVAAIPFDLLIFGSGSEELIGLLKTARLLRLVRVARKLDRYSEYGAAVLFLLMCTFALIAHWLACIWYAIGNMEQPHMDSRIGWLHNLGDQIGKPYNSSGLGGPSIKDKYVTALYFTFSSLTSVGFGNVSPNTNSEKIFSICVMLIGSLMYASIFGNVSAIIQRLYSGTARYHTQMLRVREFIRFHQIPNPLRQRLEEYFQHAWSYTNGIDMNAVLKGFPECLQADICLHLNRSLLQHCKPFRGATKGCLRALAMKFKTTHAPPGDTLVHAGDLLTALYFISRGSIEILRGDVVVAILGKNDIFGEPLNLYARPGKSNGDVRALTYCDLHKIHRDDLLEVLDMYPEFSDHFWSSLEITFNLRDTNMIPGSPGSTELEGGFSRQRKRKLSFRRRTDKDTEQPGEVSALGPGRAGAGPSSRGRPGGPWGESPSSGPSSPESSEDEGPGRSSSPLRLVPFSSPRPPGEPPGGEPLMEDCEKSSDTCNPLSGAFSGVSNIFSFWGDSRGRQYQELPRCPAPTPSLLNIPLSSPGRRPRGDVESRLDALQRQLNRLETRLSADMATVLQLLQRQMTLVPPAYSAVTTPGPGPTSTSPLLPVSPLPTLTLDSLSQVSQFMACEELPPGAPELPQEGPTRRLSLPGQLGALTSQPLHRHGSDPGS

SMILES strings stand for the structures.

In this experiment the target is Voltage-gated inwardly rectifying potassium channel KCNH2 (Homo sapiens, UniProt Q12809). As to the kind of experiment: Inhibition of human ERG by MK-0499 binding assay.
In general, IC50 refers to the midpoint of a concentration-inhibition curve. A lower IC50 goes with higher potency. In turn, `Cc1nnc(-c2cc(C(F)(F)F)cc(S(=O)(=O)N3CCN(C(=O)[C@@H]4C[C@H]4c4ccc(C(F)(F)F)cc4)CC3)c2)[nH]1` had an IC50 of 1.3 µM.
For the compound `O=C1CSC(c2cc(C(F)(F)F)cc(S(=O)(=O)N3CCN(C(=O)[C@@H]4C[C@H]4c4ccc(C(F)(F)F)cc4)CC3)c2)=N1`, the IC50 was determined as 4 µM.
As for `Cc1[nH]ncc1-c1cc(C(F)(F)F)cc(S(=O)(=O)N2CCN(C(=O)[C@@H]3C[C@H]3c3ccc(C(F)(F)F)cc3)CC2)c1`, the figure is 0.04 µM; as for `O=C([C@@H]1C[C@H]1c1ccc(C(F)(F)F)cc1)N1CCN(S(=O)(=O)c2cc(C(F)(F)F)cc(C(F)(F)CO)c2)CC1`, 2.5 µM.
Compound `O=C([C@@H]1C[C@H]1c1ccc(C(F)(F)F)cc1)N1CCN(S(=O)(=O)c2cc(-c3cn[nH]c3)cc(C(F)(F)F)c2)CC1` came in with a half-inhibitory concentration (IC50) of 0.5 µM.
